SMILES strings stand for the structures.

This assay addresses T1, HMG-CoA reductase (HMGR) (Homo sapiens, UniProt P04035).
T1 sequence (P04035 426-888 limits assumed): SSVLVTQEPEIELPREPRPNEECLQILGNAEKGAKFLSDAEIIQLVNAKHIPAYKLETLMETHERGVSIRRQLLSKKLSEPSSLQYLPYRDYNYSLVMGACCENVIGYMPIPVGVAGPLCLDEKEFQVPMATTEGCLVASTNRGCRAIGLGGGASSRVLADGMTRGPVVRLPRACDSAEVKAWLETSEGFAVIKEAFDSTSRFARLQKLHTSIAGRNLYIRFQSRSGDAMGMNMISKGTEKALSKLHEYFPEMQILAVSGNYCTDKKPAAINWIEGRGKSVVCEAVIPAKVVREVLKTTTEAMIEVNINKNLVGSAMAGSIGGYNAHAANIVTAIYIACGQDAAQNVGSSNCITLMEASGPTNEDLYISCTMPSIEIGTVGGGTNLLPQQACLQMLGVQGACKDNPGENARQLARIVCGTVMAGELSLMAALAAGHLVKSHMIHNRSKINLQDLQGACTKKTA
As to the kind of experiment: HMG-CoA reductase (HMGR) inhibition assay, NADPH oxidation at 340 nm. It counts as biochemical. To be noted: isolates and pravastatin; mean ± SD, n = 3. The protocol: The HMGR activity assay was optimized using a 96-well microplate reader to measure nicotinamide adenine dinucleotide phosphate (NADPH) oxidation during enzyme turnover. Each well was loaded with a mixture comprising 89 μL of 50 mM sodium phosphate buffer (pH 6.8), 0.8 mM NADPH, and 2 μg of the enzyme (2–8 units/mg). To initiate the reaction, 1 μL of the test sample and 10 μL of 0.8 mM HMG-CoA were introduced to the well. As a positive control, 10 μM pravastatin was utilized, while blank DMSO served as the negative control. The activity of HMGR was assessed by monitoring the reduction in NADPH absorbance at 340 nm for a duration of 900 s at 37 °C.

Broadly, the IC50 is the concentration that gives 50% inhibition. With `CC[C@H](C)C(=O)O[C@H]1C[C@H](O)C=C2C=C[C@H](C)[C@H](CC[C@@H](O)C[C@@H](O)CC(=O)O)[C@H]21` [Pravastatin, reference compound], half-maximal inhibition (IC50) required 410 ± 50 nM.

For the origin of these results see paper PMC10818259, “Antioxidant and Inhibitory Activities of Filipendula glaberrima Leaf Constituents against HMG-CoA Reductase and Macrophage Foam Cell Formation” (Molecules, 2024).
